Experimental data taken from patent US20070249670A1, “Glycogen Phosphorylase Inhibitor Compounds and Pharmaceutical Compositions Thereof” (SMITHKLINE BEECHAM CORPORATION, priority 2004, published 2007).

Sequences of proteins named here, by UniProt entry; tags and fusion partners are left off. Residues count along the entry.
UniProt P06737, 2-847 limits assumed: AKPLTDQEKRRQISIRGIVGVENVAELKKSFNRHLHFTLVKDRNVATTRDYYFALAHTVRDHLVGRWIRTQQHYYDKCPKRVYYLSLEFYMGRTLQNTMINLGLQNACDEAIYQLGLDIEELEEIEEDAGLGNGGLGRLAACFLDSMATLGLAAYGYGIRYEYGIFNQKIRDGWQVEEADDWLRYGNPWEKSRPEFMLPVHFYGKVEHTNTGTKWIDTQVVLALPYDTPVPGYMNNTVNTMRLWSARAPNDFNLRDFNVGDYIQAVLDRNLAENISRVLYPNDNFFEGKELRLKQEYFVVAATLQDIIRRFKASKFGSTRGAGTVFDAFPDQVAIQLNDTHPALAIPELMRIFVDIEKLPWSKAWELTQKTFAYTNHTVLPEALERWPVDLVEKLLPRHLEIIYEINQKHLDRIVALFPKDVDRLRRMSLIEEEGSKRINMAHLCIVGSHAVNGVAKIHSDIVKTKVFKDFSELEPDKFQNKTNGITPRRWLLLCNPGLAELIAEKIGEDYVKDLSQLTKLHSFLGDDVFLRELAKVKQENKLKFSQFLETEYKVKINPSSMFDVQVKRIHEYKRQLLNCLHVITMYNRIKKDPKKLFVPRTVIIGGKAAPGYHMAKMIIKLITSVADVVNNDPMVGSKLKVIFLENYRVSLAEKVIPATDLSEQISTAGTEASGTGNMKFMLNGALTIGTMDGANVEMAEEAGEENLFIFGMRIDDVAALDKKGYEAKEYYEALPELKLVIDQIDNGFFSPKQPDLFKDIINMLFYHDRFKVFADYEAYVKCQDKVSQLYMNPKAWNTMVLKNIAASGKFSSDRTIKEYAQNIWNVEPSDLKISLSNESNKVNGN

Molecular target: human liver glycogen phosphorylase a (HLGPa) (Homo sapiens, UniProt P06737)
Assay: Human liver glycogen phosphorylase a enzymatic activity assay (coupled, fluorescent resorufin readout, with and without 10 mM glucose)
Assay type: biochemical

`O=C(Nc1sc(-c2ccccc2)cc1C(=O)N[C@H](C(=O)O)C1CCCCC1)Nc1c(Cl)cc(Cl)cc1Cl` gave an IC50 (human liver glycogen phosphorylase a, table does not say whether with or without 10 mM glucose) of 840 nM.
In the case of `COc1ccc(-c2nc(C(=O)N[C@H](C(=O)O)C3CCCCC3)c(NC(=O)Nc3c(C)cc(C)cc3C)s2)cc1`, the IC50 (human liver glycogen phosphorylase a enzymatic activity assay) is reported as 700 nM.
